{"source": "patent US10865196B2", "about": "“Compounds for treatment of cancer” (University of Tennessee Research Foundation, priority 2008, dated 2020)", "system": "PC-3 tumors", "assay": "PC-3 xenograft in nude mice", "data": [{"smiles": "CC(=O)O[C@@]12CO[C@@H]1C[C@H](O)[C@@]1(C)C(=O)[C@H](O)C3=C(C)[C@@H](OC(=O)[C@H](O)[C@@H](NC(=O)OC(C)(C)C)c4ccccc4)C[C@@](O)([C@@H](OC(=O)c4ccccc4)[C@H]21)C3(C)C", "note": "[Docetaxel, reference compound]", "values": [{"measurement": "TGI", "setting": "IV 10 mpk day 1 and 9, day 19", "result": 84, "unit": "%"}, {"measurement": "TGI", "setting": "IV 20 mpk day 1 and 9, day 19, 20 mg/kg", "result": "> 100", "unit": "%"}]}]}
